Common to all, as to assay type: cell-based
Test [1] relates to cellular microtubules in HeLa cells. Nature of the test: Quantitative immunoluminescent assay of the cellular microtubule content. Particulars: Homo sapiens, 0.5 h, read-out: IC50, drug concentration able to reduce the amount of cellular microtubules by half. The method, then:
7500 HeLa cells were seeded in 96-well microplates (#655086, Greiner bio One, Courtaboeuf, France) in 100 µL of complete medium per well and then incubated at 37 °C in 5% CO2 for 24 h. Cells were then treated for 30 min at 37 °C with the compounds at concentrations ranging from 1 to 5000 nM (1 microplate per molecule, 1 concentration per column), with 0.1% DMSO used as […] control (6 wells per microplate). After medium aspiration, treated cells were permeabilized for 10 min using 100 µL per well of warmed (37 °C) OPT buffer (80 mM Pipes, 1 mM EGTA, 1 mM MgCl2, 0.5% Triton X-100, and 10% glycerol, pH 6.8). Cells were fixed overnight at room temperature using 100 µL per well of 4% formaldehyde (Sigma Aldrich, #252549, Saint-Quentin-Fallavier, France) in PBS. […] Then, cells were washed again with PBS and 100 µL of ECL substrate (#170-5061, Bio-Rad Laboratories inc., USA) were injected in each well using the FLUOstar OPTIMA Microplate Reader (BMG Lab technology, Champagny-sur-Marne, France). The luminescent signal was read immediately after ECL injection. IC50s, i.e., drug concentrations able to reduce the amount of cellular microtubules by half, were calculated for each independent experiment using GraphPad Prism software and are presented in the text as means ± SEM.

In test [2] the test system is RPE-1 cells. The test is described as follows: Cell viability, PrestoBlue assay, RPE-1. To be noted: Homo sapiens, RPE-1, 48 h, read-out: GI50 (concentration causing 50% cell growth inhibition). The method, then: (§1) Cell viability was analyzed using the colorimetric PrestoBlue assay (Gibco Invitrogen, #A13262, Carlsbad, CA, USA). Cells were seeded in 96-well microplates (#655077, Greiner, Courtaboeuf, France) at density of 2500 cells per well and allowed to adhere for 24 h before being treated for 48 h with the drugs at indicated concentrations or corresponding concentrations of DMSO as controls, in a final volume of 90 µL. After 48 h of treatment, 10 µL PrestoBlue was added to each well and cells were incubated for another 45 min. The absorbance of each well was measured using a FLUOstar microplate reader (Excitation: 544 nm; Emission: 580 nm, BMG Lab technology, Champagny/Marne, France). GI50s, i.e., drug concentrations able to reduce cell growth by half, were calculated for each independent experiment using GraphPad Prism software and are presented in the text as means ± SEM.

Test [3] has as its system HeLa cells. The test is described as follows: Cell viability, PrestoBlue assay, HeLa. Particulars: Homo sapiens, 48 h, read-out: GI50 (concentration causing 50% cell growth inhibition). As for the experimental part: as §1

`COc1cc2c(c(OC)c1OC)-c1ccc(OC)c(=O)cc1[C@@H](NC(C)=O)CC2` [colchicine]: the IC50 in test [1] came to 0.787 ± 0.0817 µM. Besides, the GI50 stood at 0.03 ± 0.00173 µM in test [2] and 0.00917 ± 0.0006 µM in test [3].

The values above are taken from PMC8533752, “Characterization of Microtubule Destabilizing Drugs: A Quantitative Cell-Based Assay That Bridges the Gap between Tubulin Based- and Cytotoxicity Assays” (Cancers, 2021).
